Among the data in ChEMBL document CHEMBL4371046, “Discovery of 3-Ethyl-4-(3-isopropyl-4-(4-(1-methyl-1 H-pyrazol-4-yl)-1 H-imidazol-1-yl)-1 H-pyrazolo[3,4- b]pyridin-1-yl)benzamide (TAS-116) as a Potent, Selective, and Orally Available HSP90 Inhibitor” (J Med Chem, 2019) are IC50 values, retold here.

The assay deals with Heat shock protein HSP 90-alpha (Homo sapiens, UniProt P07900). The experiment in a line: Displacement of biotin-labeled geldanamycin from His-tagged HSP90alpha NTD (unknown origin) preincubated for 2 hrs followed by biotin-labeled geldanamycin addition and measured after 1 hr by AlphaScreen assay. The gist of the method:
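Competitive AlphaScreen binding assay. His-tagged HSP90α N-terminal domain was incubated with test compounds at room temperature for 2 h. Biotin-labeled geldanamycin was then added for a further 1 h. Nickel-chelate acceptor and streptavidin donor beads were added, with 1 h incubation in the dark before plate reading. IC50 is given as mean ± SE (n = 3).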

Turning to `CC(C)c1nn(-c2ccc(C(N)=O)c(N[C@H]3CC[C@H](O)CC3)c2)c2nccc(-c3cnc4ccccc4c3)c12`, the IC50 (in general, the concentration at which inhibition is half-maximal) amounted to 58 nM.

As to `COc1ccc(-c2ccnc3c2c(C(C)C)nn3-c2ccc(C(N)=O)c(N[C@H]3CC[C@H](O)CC3)c2)cn1`, the half-inhibitory concentration (IC50) came out at 1170 nM.
